# Values of other authors as cited in patent publication US20220168203A1, “METHOD FOR PREPARING HAIR TREATMENTS AGENTS WITH ORGANIC C1-C6 ALKOXY-SILANES” (Henkel AG & Co. KGaA, priority 2019, published 2022).
# Details: 25° C.
substance,measurement,value
"3,4,5,6-tetrachloro-2-(1,4,5,8-tetrabromo-6-hydroxy-3-oxoxanthen-9-yl)benzoic acid [Acid Red 92]",solubility in water,greater than 10 g/L
